Experimental data as given in publication PMC9555642 (PLoS ONE, 2022).

Sequences of proteins named here, by UniProt entry; tags and fusion partners are left off.
UniProt Q92769, whole entry: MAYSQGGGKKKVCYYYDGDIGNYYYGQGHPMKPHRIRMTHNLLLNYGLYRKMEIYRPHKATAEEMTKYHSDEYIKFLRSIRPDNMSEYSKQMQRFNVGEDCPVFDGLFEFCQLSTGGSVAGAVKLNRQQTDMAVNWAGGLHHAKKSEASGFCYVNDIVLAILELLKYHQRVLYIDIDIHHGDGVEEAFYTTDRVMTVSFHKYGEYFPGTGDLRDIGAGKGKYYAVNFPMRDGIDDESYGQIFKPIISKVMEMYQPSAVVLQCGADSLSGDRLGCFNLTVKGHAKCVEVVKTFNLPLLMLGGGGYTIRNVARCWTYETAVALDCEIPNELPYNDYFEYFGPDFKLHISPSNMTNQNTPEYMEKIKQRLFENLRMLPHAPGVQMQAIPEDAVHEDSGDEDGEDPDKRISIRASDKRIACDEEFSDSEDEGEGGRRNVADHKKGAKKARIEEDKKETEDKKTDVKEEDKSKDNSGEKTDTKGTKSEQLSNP
UniProt Q14524, whole entry: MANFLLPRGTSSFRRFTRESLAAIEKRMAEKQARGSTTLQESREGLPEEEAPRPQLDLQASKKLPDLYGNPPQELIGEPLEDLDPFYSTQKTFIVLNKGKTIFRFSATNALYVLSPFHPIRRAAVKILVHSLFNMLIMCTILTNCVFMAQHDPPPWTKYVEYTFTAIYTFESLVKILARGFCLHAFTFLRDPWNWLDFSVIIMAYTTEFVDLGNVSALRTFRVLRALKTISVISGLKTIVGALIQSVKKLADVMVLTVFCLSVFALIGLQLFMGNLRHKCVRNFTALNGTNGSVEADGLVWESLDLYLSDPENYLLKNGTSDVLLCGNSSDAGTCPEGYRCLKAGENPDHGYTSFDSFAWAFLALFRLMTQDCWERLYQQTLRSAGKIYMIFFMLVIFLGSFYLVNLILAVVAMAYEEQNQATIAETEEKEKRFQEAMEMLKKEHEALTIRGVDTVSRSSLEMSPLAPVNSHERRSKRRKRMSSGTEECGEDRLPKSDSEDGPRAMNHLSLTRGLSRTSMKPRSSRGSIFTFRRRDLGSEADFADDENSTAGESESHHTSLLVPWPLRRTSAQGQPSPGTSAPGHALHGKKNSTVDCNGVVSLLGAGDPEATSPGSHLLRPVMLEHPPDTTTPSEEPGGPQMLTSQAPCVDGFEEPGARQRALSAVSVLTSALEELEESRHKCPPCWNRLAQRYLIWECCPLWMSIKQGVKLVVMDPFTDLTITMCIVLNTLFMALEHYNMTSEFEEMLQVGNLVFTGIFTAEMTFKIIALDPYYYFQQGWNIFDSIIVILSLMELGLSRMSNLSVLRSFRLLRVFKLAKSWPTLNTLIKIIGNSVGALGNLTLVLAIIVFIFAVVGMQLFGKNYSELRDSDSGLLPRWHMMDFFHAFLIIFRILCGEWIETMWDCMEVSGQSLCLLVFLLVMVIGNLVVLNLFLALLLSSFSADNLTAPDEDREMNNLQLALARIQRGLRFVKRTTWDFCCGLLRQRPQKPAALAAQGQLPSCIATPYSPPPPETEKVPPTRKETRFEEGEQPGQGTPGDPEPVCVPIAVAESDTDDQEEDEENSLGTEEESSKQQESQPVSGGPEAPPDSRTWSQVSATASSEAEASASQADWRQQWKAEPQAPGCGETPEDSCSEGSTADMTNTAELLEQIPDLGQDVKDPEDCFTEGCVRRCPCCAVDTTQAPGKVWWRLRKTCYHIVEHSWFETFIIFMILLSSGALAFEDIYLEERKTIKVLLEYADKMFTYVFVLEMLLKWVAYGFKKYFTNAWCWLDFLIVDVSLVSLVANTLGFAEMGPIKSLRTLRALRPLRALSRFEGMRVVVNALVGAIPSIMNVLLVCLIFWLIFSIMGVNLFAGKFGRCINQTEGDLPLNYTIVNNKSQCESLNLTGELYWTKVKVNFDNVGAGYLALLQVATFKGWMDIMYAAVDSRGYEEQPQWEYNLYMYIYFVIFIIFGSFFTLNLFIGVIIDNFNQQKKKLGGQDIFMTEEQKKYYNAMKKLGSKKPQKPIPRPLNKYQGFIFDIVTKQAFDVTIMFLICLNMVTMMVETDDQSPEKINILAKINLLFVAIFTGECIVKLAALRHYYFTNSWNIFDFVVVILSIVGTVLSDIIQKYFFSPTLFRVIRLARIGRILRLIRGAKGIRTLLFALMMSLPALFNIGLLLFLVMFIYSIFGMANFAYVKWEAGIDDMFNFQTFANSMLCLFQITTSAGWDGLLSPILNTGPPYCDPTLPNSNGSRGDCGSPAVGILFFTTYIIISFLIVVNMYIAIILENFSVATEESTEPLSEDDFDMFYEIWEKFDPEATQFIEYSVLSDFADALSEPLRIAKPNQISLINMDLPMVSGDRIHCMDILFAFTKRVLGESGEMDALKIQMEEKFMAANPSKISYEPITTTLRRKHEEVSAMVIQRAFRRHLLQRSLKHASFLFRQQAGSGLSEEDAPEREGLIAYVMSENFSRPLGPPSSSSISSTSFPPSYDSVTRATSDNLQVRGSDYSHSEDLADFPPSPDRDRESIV
UniProt Q13547, whole entry: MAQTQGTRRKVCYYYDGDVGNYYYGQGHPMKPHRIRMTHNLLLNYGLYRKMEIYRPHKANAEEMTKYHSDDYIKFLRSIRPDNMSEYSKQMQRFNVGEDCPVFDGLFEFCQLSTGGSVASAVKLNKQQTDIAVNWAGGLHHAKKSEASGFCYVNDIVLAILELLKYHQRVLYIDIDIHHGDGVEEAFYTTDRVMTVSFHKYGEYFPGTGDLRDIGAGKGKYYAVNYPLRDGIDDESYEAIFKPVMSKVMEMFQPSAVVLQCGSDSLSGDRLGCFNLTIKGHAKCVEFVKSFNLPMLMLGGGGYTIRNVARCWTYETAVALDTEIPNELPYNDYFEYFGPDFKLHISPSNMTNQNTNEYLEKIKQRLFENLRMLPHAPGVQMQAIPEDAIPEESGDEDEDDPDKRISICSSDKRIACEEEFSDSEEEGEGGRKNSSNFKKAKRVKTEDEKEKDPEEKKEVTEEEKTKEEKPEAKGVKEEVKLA

Experiments:
HDAC2 = target: T1, HDAC2 (Homo sapiens, UniProt Q92769); assay: HDAC enzymatic activity (Eurofins); type: biochemical; settings: Class I; ACY-1083 mean of two separate measurements, Ricolinostat and Tubastatin A one measurement
T1 construct: purchased Eurofins Pharma Discovery Services 2492

[1] = system: deacetylation of α-tubulin; settings: 10-fold of the cited cell IC50
Nav1.5 = Nav1.5 (Homo sapiens, UniProt Q14524); settings: CHO K1 cell line, room temperature, 6 point cumulative assay
HDAC1 = target: T2, HDAC1 (Homo sapiens, UniProt Q13547); assay: HDAC enzymatic activity (Eurofins); type: biochemical; settings: Class I; ACY-1083 mean of two separate measurements, Ricolinostat and Tubastatin A one measurement
T2 construct: purchased Eurofins Pharma Discovery Services 2491

[2] = Secondary pharmacology panel of >190 in vitro radioligand binding and enzyme assays; settings: only COX2, DAT and Sigma-1 receptor active below 30 μM
HDAC6 = target: T3, HDAC6 (Homo sapiens, UniProt Q9UBN7); assay: HDAC enzymatic activity (Eurofins); type: biochemical; settings: HDAC enzyme panel
T3 sequence (Q9UBN7 1-1215): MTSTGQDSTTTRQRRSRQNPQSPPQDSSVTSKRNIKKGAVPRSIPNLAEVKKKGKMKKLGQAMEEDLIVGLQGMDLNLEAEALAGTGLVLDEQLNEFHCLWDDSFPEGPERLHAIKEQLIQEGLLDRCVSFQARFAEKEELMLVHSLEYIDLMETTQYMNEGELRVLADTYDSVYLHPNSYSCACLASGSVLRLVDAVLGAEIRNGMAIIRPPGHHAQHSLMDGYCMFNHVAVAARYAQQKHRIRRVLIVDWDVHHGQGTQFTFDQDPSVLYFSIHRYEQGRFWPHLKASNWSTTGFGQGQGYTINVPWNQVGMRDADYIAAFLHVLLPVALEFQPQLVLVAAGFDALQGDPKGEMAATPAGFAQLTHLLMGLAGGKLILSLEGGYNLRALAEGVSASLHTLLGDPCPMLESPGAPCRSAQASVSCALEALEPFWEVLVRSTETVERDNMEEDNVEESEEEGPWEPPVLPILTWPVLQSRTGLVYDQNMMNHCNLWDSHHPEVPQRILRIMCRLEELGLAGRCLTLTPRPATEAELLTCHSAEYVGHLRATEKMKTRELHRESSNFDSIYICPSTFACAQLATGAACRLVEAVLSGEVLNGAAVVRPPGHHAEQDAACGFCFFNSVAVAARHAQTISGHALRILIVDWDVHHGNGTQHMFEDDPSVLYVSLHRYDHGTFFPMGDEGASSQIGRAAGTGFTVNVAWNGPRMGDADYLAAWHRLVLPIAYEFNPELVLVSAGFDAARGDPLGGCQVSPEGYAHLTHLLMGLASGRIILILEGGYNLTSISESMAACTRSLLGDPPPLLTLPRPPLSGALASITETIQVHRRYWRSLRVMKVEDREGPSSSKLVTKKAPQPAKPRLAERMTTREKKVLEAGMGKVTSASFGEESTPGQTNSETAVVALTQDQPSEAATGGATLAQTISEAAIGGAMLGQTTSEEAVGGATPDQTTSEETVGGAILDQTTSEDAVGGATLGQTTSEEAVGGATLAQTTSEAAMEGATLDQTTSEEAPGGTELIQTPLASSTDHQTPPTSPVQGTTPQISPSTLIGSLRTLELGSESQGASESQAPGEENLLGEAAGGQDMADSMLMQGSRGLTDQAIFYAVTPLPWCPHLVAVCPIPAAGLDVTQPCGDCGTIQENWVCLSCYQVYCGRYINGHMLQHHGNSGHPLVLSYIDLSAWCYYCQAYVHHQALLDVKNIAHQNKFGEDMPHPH

Substance: ACY-1083
- IC50 (HDAC2): 70.7 µM
- concentration for full HDAC6 blockade (10-fold IC50 from a cell assay) [1]: 0.3–1 μM
- activity on Nav1.5 (Nav1.5): > 30 µM
- IC50 (HDAC1): 17.2 µM
- selectivity in panel of >190 in vitro radioligand binding and enzyme assays [2]: excellent selectivity
- selectivity for HDAC6 over HDAC1, 4, 8, 9, 10 and 11 (HDAC6): > 1000 fold
- selectivity for HDAC6 over HDAC2 and 3 (HDAC6): > 7000 fold
- selectivity for HDAC6 towards HDAC5 and HDAC7 (HDAC6): > 400 fold
